Earlier results on one substance are cited in paper PMC11219766 (Nature Communications, 2024).

By UniProt entry, the sequences of proteins in these tests, tags left out. Where a name states a change or a piece, a line headed by the entry shows the natural chain unless it says otherwise.
UniProt Q99828: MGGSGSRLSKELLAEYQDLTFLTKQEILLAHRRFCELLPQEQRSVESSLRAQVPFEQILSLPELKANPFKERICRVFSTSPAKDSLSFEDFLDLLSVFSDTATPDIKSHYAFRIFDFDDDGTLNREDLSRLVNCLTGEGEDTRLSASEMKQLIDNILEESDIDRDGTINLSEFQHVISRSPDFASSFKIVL

The target of the data set is CIB1 (Homo sapiens, UniProt Q99828). The settings on record: read-out: CIB1 IC50; cited from earlier work.

As to -S-Ac-YTTPIWNIRFC-NH2 [UNC10245204], the IC50 is 15 nM.

One may read the IC50 as the concentration needed to halve the response being measured.
